Literature values as cited in patent publication US10912759B2 (priority 2018, dated 2021).

Details: aqueous vehicles; cited from earlier work

Q: For “vitamin E d-alpha-tocopherol polyethylene glycol 1000 succinate [TPGS]”, which “concentration at which stable micelles form” value is on record?
A: ≥ 0.02 wt %
